This assay deals with mouse recombinant PARP2 (Mus musculus, UniProt O88554). In words: biochemical.

By UniProt entry, the sequences of proteins in these tests, tags left out. Where a name states a change or a piece, a line headed by the entry shows the natural chain unless it says otherwise.
UniProt O88554: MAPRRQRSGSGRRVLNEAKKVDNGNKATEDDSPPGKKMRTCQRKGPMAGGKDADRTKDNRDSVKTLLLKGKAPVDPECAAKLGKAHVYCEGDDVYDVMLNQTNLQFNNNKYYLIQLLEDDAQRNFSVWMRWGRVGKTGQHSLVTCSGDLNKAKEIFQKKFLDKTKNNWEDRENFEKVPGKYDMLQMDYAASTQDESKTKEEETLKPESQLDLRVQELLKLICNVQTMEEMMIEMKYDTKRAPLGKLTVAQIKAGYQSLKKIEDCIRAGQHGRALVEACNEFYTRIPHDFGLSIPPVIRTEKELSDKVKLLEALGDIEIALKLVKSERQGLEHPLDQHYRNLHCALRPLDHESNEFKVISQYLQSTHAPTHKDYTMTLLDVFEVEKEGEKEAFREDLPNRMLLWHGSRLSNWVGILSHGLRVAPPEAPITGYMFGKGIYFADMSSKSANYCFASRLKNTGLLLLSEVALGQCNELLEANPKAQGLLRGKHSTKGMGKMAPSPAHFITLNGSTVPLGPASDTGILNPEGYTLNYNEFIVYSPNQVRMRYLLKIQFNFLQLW

The term IC50 denotes the concentration at which inhibition is half-maximal. Take `O=c1[nH]nc2c3c(cccc13)N=C(CN1Cc3ccccc3C1)N2` [E7449, 8-(isoindolin-2-ylmethyl)-2,9-dihydro-3H-pyridazino[3,4,5-de]quinazolin-3-one]: the 50% inhibitory concentration (IC50) was 1.2 nM.

The values are drawn from paper PMC4747407 (Oncotarget, 2015).
